The subject of the assay is endothelial cells. The experiment in a line: Anti-vascular score (AVS) on Fast Green/H&E slides of tumor cell cultures, averaged over paired comparisons. In kind it is cell-based, human. The arrangement: key: 10x the 0+ to 5+ anti-microvascular score (max 50). Conditions: 10x multiples of the 0+ to 5+ score, average of N paired comparisons; bevacizumab 2.5 mg/ml, DMSO 0.5% + EtOH 0.5%, cisplatin 3.3, sunitinib 8.35, gefitinib 22.35, erlotinib 89.4, sorafenib 12.5, imatinib 12.5 μg/ml. How it is done:
Solid tumors are minced to pieces smaller than 1 mm (small enough to be aspirated into a standard disposable 10 ml pipette) with high quality curved surgical scissors. Medium in which said tumors may have been transported is reserved, along with the supernatant from the tissue mince. Scissor-minced tumor pieces are digested with collagenase/DNase in RPMI-1640 containing antibiotics and 10% fetal calf serum. Specimens are digested in 50 ml disposable polypropylene centrifuge tubes, assisted by gentle mixing with plastic-coated, magnetic stirring bars over a stirring plate. Specimens are thusly mixed until complete gross digestion has taken place—typically about 2-3 hours for a 1-3 gram specimen. Cytospin slides are then prepared from all cell fractions (transport medium, supernatant from tissue mince, and enzyme digestate), and stained with fast green-H&E, as described previously (Weisenthal, et al., “A Novel Dye Exclusion Method for Testing in vitro Chemosensitivity of Human Tumors,” Cancer Res. (1983) 43:749-757).
Final volume of cell suspension/drug solution (or vehicle) plated for culture can be 0.12 ml. […]
Cells are cultured with the index concentration of each drug and, if desired, with dilutions of the index concentration, where the index concentration is determined from training set assays or from the literature. […]

These results are taken from US8278033B2, “Efficient well being assessment and improved treatment protocol” (priority 2008, dated 2012).

Molecules are shown by their SMILES.

For the compound `CNC(=O)c1cc(Oc2ccc(NC(=O)Nc3ccc(Cl)c(C(F)(F)F)c3)cc2)ccn1` [Sorafenib, sorafenib], the “Anti-Vascular Score (AVS) (Avg)” value came out at 12.2.
